Screening results as filed in PubChem.
This is a sample that favours compounds with a hit; in the whole collection about 2.3% have one here.
miR-21 FLuc: miR-21 reporter, rising signal; HeLa miR-21 FLuc reporter, luciferase, 48 h; Potency, µM (titrated, usually from 38.3 µM), without a hit: top-dose reporter change, positive = more light; AID 2288; 340,000 tested, under 10 active; active = well fitted rising curve with a large enough effect; inconclusive = small, poorly fitted or top-dose-only effect; inactive = no such curve, though single readings can be large or run the other way;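 further: % of control where 0% means no effect; miR-21 action dims this reporter so a rising signal means less miR-21 action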
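Using DMEM plus 10% FBS, HeLa miR-21-FLuc cells are incubated with test compounds (final up to about 40uM) for 48 hours; firefly luciferase signal is then imaged following reagent-mediated lysis.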
Nrf2 block: inhibitors of Nrf2 signaling | A549 ARE-Fluc reporter, luciferase luminescence, 18-24 h | Potency, µM (highest dose often 46 µM), for the others: top-dose activity change, negative = inhibition, usual class: inhibitors | 360,000 compounds, 2.1% hits; further: potency means the concentration at half of the fitted maximal effect; on the % scale 0 is the no-effect control and ±100 the full control effect; nearly all actives have a fitted effect of over 60% in size
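In this cell-based qHTS, ARE-driven firefly luciferase in A549 cells reports Nrf2 activity; the luminescent signal after BugLite lysis is the measured value, with a prior CellTiter-Fluor read for cell health.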
A549 viability: A549 cytotoxicity, counter-screen for Nrf2 inhibitors; 390,000 compounds, 0.16% hits; A549 ARE-Fluc cells, CellTiter-Fluor viability, 18-24 h; Potency, µM (top dose mostly 46 µM), for the others: at the highest dose activity change, negative = cytotoxicity, hits mostly inhibitors; further: potency means the concentration at half of the fitted maximal effect; on the % scale 0 is the no-effect control and ±100 the full control effect
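A549 ARE_Fluc cells in 5% FBS OPTI-MEM were exposed to compounds in concentration-response for 18-24 h at 37 deg C. Viability was read by CellTiter-Fluor fluorescence (Ex 405/Em 525) after 30 min, before the luciferase read.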
Nrf2 activator: activates Nrf2 signaling. AREc32 ARE-luciferase reporter (MCF7-derived line), luminescence, 24 h. Potency, µM (titrated, usually from 46.1 µM), for the others: at the top dose activation, hits mostly activators. 410,000 compounds, 0.31% hits; further: potency means the concentration at half of the fitted maximal effect; % of control where 0% means no effect; nearly all actives have a fitted effect of over 65% in size
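Steps: seed AREc32_Fluc cells (1000/well, 5% FBS OPTI-MEM); incubate overnight at 37 deg C; add 23 nL compound; incubate 24 hr; add Steady-Glo; hold 30 min RT; read luminescence.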
Mito fusion yeast: mitochondrial division inhibition or fusion activation; S. cerevisiae fusion-defective mutant growth rescue, CellTiterGlo 48 h; Potency, µM (series often up to 46.1 µM), without a hit: at the highest dose growth rescue (activation), hits mostly activators; 320,000 compounds, 0.23% hits; AID 485298; further: potency means the concentration at half of the fitted maximal effect; % of control where 0% means no effect; nearly all actives have a fitted effect of over 45% in size
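Compounds are tested for their ability to restore growth of mitochondrial fusion-defective yeast strains at non-permissive 37C in YPEG medium over 48 hours. Viability is quantified by luciferase luminescence.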
* hit, by the source's call; u = inconclusive; x = not tested or not shown. The call rests on the fitted dose curve; in most records, active means well fitted curve in the direction sought with a large enough effect; inconclusive means small, poorly fitted or top-dose-only effect, or another doubt; inactive means no such curve, though single readings can be large; an effect the other way counts as inactive or inconclusive.

1) Cc1cc(C)c(/C=C/c2onc(C)c2S(=O)(=O)N2CCC(C(=O)N3CCN(c4ccc(Cl)cc4)CC3)CC2)c(C)c1
2) CC1(C)OC(=O)C2(Cc3cc(C(F)(F)F)ccc3N3CCCCC32)C(=O)O1 (stereo not drawn)
3) O=C(Nc1ccc(S(=O)(=O)Nc2ccccc2)cc1)N1CCCC1
4) CC(c1ccccc1)n1c(-c2cccs2)nc2c(c(=O)c3ccccc3n2C)c1=O (stereo not drawn)
5) CCc1cccc(N2C(=O)CSC23C(=O)N(Cc2ccccc2F)c2ccccc23)c1 (stereo not drawn)
6) COc1ccc(CNC(=O)Cn2nc(C(F)(F)F)c(Br)c2C)cc1

Compound	1	2	3	4	5	6
miR-21 FLuc	1%	x	-2%	-3%	u	-8%
Nrf2 block	x	-6%	x	5%	u	13%
A549 viability	6%	-16%	13%	-1%	-11%	3%
Nrf2 activator	0%	x	0%	0%	1%	-1%
Mito fusion yeast	x	x	x	22µM*	x	1%

7) COc1cc(NC(=O)Cn2nc(C(F)(F)F)c(Br)c2C)cc([N+](=O)[O-])c1
8) CCCCCCCCCn1c2c(c(=N)c3c1CCC3)CCC2
9) CCCCCCn1c2c(c(=N)c3c1CCC3)CCC2
10) O=[N+]([O-])c1ccccc1NCc1ccc(O)c2ncccc12
11) O=C(c1ccccc1)N1CCN(c2ncnc3sc4c(c23)CCC4)CC1
12) c1nc(N2CCOCC2)c2c3c(sc2n1)CCCC3

Compound	7	8	9	10	11	12
miR-21 FLuc	u	u	u	x	16%	-16%
Nrf2 block	23µM*	u	15µM*	6.5µM*	16µM*	-15%
A549 viability	u	1%	-6%	u	-4%	3%
Nrf2 activator	4%	-4%	4%	x	1%	-1%
Mito fusion yeast	-4%	-18%	3%	x	9%	9%

13) CCNc1nc(NC(C)C)nc(N(C#N)CCOc2ccc(Cl)cc2Cl)n1
14) COc1ccc(C2Nc3ccccc3C(=O)N2CC(C)(C)C)cc1COc1ccc(NC(C)=O)cc1 (stereo not drawn)
15) CCOc1ccc(OCC)c(NC(=O)CSc2nc3c(c(=O)n(C)c(=O)n3C)n2C(C)C)c1
16) Cc1cccc(NC(=O)CSc2nc3c(oc4ccccc43)c(=O)n2C(C)C)c1
17) COc1ccc(CNc2ccccc2C(=O)NCc2ccccc2)cc1COc1ccc(NC(C)=O)cc1
18) Cc1ccc(NC(=O)CN(C)S(=O)(=O)c2cccc3nsnc23)cc1

Compound	13	14	15	16	17	18
miR-21 FLuc	-1%	x	6%	6%	x	-1%
Nrf2 block	9.2µM*	-1%	16µM*	u	u	x
A549 viability	x	-9%	-9%	-17%	-1%	2%
Nrf2 activator	4%	x	4%	0%	x	-1%
Mito fusion yeast	u	x	6%	x	x	-2%

19) CN(CC(=O)Nc1ccc(F)c(Cl)c1)S(=O)(=O)c1cccc2nsnc12
20) Cc1ccc(NC(=O)c2sc3nc(-c4cccs4)ccc3c2N)cc1F
21) COc1cc(C(=O)Nc2nc(-c3cccs3)cs2)cc(OC)c1OC
22) O=C(Nc1nc(-c2cccs2)cs1)c1ccco1
23) Cc1csc(NC(=O)c2sc3nc(-c4cccs4)ccc3c2N)n1
24) Cc1noc(C)c1CSc1ccccc1C(=O)Nc1nccs1

Compound	19	20	21	22	23	24
miR-21 FLuc	1%	-21%	u	-47%	-17%	0%
Nrf2 block	26µM*	-14%	u	u	u	u
A549 viability	-14%	9%	-17%	6%	u	2%
Nrf2 activator	-1%	8%	3%	13µM*	4%	0%
Mito fusion yeast	8%	x	14µM*	7%	11µM*	35µM*

25) COc1ccc(CCNC(=O)CSc2ncc(C(=O)Nc3ccccc3)c(=O)n2C)cc1
26) COc1ccccc1NC(=O)c1cnc(SCC(=O)NCCc2ccccc2)n(C)c1=O
27) O=[N+]([O-])c1nn(-c2ccc3c(c2)OCCO3)n(O)c1=NC1CCCCC1
28) Cc1cc(Cl)ccc1NC(=S)NCCCO
29) Cc1ccc(Cl)cc1NC(=S)NCCCSC1CCCCC1
30) Cc1nn(C)cc1CNC(=O)c1cc2n(n1)C(C(F)(F)F)CC(c1cccs1)N2 (stereo not drawn)

Compound	25	26	27	28	29	30
miR-21 FLuc	x	x	-45%	-1%	23%	8%
Nrf2 block	u	7%	u	0%	26µM*	u
A549 viability	13%	-4%	-14%	1%	u	-7%
Nrf2 activator	3%	4.5µM*	2%	0%	3%	1%
Mito fusion yeast	-3%	-5%	13µM*	-2%	-6%	0%

31) Cc1nn(C)c(C)c1CNC(=O)c1nn2c(c1Cl)NC(c1cccs1)CC2C(F)(F)F (stereo not drawn)
32) COc1ccc(NC(=O)c2ccc3c(c2)N(Cc2cccc(Cl)c2)C(=O)c2ccccc2S3(=O)=O)cc1Cl
33) COc1cc(OC)cc(-c2c(-c3cccs3)c3cc(-c4ccc(OC)c(OC)c4)ccc3n2C)c1
34) COc1cc(OC)cc(-c2c(-c3cccs3)c3cc(-c4cnc(N)nc4)ccc3n2C)c1
35) N#Cc1cccc(NC(=O)c2cc3c(s2)-c2ccc(Cl)cc2SC3)c1
36) COc1ccc(C(=O)NCCn2cc(SCc3c(F)cccc3Cl)c3ccccc32)cc1

Compound	31	32	33	34	35	36
miR-21 FLuc	16%	0%	x	x	-7%	u
Nrf2 block	16µM*	12%	-11%	21µM*	u	u
A549 viability	-12%	1%	4%	-7%	u	u
Nrf2 activator	3%	0%	1%	-1%	0%	0%
Mito fusion yeast	-1%	x	1%	x	x	x

Entries of single compounds from above. Order of screens: miR-21 FLuc | Nrf2 block | A549 viability | Nrf2 activator | Mito fusion yeast
Cc1nn(C)c(C)c1CNC(=O)c1nn2c(c1Cl)NC(c1cccs1)CC2C(F)(F)F (stereo not drawn) as listed: 16% | 16µM* | -12% | 3% | -1%
COc1cc(OC)cc(-c2c(-c3cccs3)c3cc(-c4cnc(N)nc4)ccc3n2C)c1 as listed: x | 21µM* | -7% | -1% | x
COc1ccc(NC(=O)c2ccc3c(c2)N(Cc2cccc(Cl)c2)C(=O)c2ccccc2S3(=O)=O)cc1Cl as listed: 0% | 12% | 1% | 0% | x
COc1ccc(C(=O)NCCn2cc(SCc3c(F)cccc3Cl)c3ccccc32)cc1 as listed: u | u | u | 0% | x

New compounds follow.
37) CC1(C)c2ssc(=S)c2-c2ccccc2N1C(=O)CSC1=NCCS1
38) COc1ccc(NC(=O)c2c(-c3ccccc3)c(-c3ccccc3)nn(C)c2=O)cc1OC
39) CC(C)c1nc2sc3ccccc3c(=O)c2c(=O)n1Cc1ccccc1
40) COc1cccc(CNS(=O)(=O)c2cnc(N)nc2)c1
41) CC(Oc1ccccc1)C(=O)Nc1nnc(S(=O)(=O)N(C)c2ccccc2)s1 (stereo not drawn)
42) CCCCc1ccc(NC(=O)CSc2nc(=O)[nH]c3c2CCCC3)cc1

Compound	37	38	39	40	41	42
miR-21 FLuc	9%	18%	-2%	-2%	8%	12%
Nrf2 block	15µM*	21%	26µM*	x	-4%	x
A549 viability	-14%	-7%	-7%	-3%	-9%	-12%
Nrf2 activator	3%	0%	0%	0%	-1%	-1%
Mito fusion yeast	-1%	x	-2%	x	13µM*	x

43) CCn1c2ccccc2c2c3ncc4cccn4c3ccc21
44) O=C(c1cc(C2CC2)nc2ccccc12)N1N=C(C(F)F)CC1(O)C(F)F (stereo not drawn)
45) O=C(c1cc(C2CC2)nc2ccc(Br)cc12)N1N=C(C(F)F)CC1(O)C(F)F (stereo not drawn)
46) Cc1ccc(C)c(/C=N/Nc2ccccn2)c1
47) Fc1cccc(/C=N/Nc2ccccn2)c1
48) Fc1cccc(F)c1/C=N/Nc1ccccn1
49) S=c1[nH]nc(COc2ccccc2)n1/N=C/C=C/c1ccco1
50) S=c1[nH]nc(COc2ccccc2)n1/N=C/C=C/c1ccccc1

Compound	43	44	45	46	47	48	49	50
miR-21 FLuc	u	-4%	25%	-36%	-46%	-31%	5%	-16%
Nrf2 block	u	-13%	18µM*	u	u	u	10%	8%
A549 viability	13%	-5%	u	1%	1%	8%	0%	-4%
Nrf2 activator	13µM*	0%	-1%	8.9µM*	7.1µM*	u	13µM*	0%
Mito fusion yeast	4%	1%	-12%	7%	-10%	-5%	3%	-2%
